The record followed here is patent US20220040086A1, “FORMULATION AND AEROSOL CANISTERS, INHALERS, AND THE LIKE CONTAINING THE FORMULATION” (KINDEVA DRUG DELIVERY L.P., priority 2018, published 2022).

This data set is described as follows: Rehydration of anhydrous ipratropium bromide (sample weight over time). The class given is physicochemical. The following applies: 0 mins after heating 10.0 g monohydrate at 125° C. for 20 minutes. Here is the method: The weight of the powder after heating was 9.563 g. The sample was weighed every 10 minutes for 90 minutes and then left over the weekend at 24° C. and 30% humidity.
The sample was then placed in a desiccator for 24 hours and weighed again.

`CC(C)[N+]1(C)[C@@H]2CC[C@H]1CC(OC(=O)C(CO)c1ccccc1)C2.[Br-]` (stereo partly shown) [anhydrous ipratropium bromide] gave a Sample weight of 9.563 g.
